The record followed here is ChEMBL document CHEMBL1275386, “Probing the active-site requirements of human intestinal N-terminal maltase-glucoamylase: Synthesis and enzyme inhibitory activities of a six-membered ring nitrogen analogue of kotalanol and its de-O-sulfonated derivative” (Bioorg Med Chem, 2010).

Chains of the proteins cited; added tags and fusions are not shown. Lines headed by an entry give the natural chain unless they say otherwise; changes in a name come on top.
UniProt O43451: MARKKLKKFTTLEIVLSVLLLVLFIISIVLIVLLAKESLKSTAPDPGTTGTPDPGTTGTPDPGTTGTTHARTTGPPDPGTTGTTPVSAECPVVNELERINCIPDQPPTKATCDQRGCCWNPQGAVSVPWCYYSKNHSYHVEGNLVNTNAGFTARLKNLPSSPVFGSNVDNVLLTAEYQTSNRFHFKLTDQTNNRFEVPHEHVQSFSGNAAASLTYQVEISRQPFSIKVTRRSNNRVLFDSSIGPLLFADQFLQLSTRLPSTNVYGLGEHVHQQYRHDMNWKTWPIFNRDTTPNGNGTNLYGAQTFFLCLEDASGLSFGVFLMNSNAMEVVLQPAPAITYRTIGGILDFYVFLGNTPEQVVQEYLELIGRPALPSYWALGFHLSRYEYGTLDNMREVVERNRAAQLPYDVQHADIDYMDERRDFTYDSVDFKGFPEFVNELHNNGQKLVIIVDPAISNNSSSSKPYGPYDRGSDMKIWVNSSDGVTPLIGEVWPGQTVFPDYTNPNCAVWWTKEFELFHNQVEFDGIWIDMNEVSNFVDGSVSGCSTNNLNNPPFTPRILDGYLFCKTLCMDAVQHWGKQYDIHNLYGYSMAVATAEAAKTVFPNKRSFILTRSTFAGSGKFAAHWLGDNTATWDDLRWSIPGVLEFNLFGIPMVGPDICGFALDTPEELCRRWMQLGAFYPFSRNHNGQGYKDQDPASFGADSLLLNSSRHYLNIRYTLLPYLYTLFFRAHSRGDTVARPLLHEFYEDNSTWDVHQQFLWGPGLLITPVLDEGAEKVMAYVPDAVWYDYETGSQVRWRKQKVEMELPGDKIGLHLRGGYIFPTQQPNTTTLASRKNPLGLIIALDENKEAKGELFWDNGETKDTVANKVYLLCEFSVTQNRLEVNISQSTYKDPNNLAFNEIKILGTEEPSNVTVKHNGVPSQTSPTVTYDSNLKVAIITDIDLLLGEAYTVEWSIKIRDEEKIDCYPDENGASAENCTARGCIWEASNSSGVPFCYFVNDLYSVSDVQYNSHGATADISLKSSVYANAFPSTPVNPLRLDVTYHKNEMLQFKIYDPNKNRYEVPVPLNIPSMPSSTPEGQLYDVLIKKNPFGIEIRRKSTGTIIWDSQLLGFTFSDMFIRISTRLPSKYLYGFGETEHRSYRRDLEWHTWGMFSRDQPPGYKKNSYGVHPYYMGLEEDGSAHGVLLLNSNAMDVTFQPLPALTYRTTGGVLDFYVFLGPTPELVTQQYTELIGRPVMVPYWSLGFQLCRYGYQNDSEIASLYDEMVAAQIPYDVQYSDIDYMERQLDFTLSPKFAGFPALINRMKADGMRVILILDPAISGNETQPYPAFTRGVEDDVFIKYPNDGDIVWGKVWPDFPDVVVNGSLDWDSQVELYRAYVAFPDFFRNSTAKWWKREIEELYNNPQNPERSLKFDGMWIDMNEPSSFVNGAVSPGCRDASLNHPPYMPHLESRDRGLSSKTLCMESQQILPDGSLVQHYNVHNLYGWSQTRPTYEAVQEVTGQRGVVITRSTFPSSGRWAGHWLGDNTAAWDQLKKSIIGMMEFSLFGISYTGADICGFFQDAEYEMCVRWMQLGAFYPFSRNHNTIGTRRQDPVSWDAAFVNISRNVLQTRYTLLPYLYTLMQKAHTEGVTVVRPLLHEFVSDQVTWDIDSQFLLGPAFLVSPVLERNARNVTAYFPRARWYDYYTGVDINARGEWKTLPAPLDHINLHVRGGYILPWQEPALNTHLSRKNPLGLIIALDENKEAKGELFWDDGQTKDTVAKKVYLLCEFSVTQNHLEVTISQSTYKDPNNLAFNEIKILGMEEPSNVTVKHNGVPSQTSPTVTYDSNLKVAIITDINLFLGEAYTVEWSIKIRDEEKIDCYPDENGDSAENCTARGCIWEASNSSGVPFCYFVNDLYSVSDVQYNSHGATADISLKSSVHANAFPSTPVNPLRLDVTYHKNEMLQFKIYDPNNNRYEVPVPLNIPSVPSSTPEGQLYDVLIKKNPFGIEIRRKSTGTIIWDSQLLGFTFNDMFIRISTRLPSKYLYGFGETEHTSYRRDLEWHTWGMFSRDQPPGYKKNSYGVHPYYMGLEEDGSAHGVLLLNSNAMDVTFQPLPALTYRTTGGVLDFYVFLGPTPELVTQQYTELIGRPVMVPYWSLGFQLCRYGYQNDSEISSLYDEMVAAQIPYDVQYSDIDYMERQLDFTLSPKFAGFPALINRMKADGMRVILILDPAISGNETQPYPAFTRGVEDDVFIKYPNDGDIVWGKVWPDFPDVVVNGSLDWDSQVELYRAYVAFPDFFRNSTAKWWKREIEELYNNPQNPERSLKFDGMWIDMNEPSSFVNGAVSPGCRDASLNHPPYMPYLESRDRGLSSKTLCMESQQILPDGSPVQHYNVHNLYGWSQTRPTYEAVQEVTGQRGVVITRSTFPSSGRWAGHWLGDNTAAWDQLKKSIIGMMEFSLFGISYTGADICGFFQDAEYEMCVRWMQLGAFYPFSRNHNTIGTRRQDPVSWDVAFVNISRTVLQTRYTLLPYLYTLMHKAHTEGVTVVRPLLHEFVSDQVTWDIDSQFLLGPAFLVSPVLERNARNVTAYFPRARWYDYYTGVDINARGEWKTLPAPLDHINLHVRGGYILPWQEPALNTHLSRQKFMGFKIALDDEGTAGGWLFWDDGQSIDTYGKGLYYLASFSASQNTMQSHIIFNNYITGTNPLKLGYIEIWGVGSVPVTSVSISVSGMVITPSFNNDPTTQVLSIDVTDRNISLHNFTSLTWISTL

For the assay, the target named is Maltase-glucoamylase (Homo sapiens, UniProt O43451). In words: Inhibition of human recombinant N-terminal subunit of maltase-glucoamylase after 60 mins by glucose oxidase assay.

Regarding `O=S(=O)([O-])O[C@@H]([C@H](O)[C@H](O)[C@@H](O)CO)[C@H](O)C[Se+]1C[C@@H](O)[C@H](O)[C@H]1CO` (stereo partly specified), the Ki is 80 nM.
